What all share (format): cell-based, human
The subject of assay [1] is ACHN cells. Put plainly: cell cycle analysis, propidium iodide staining of nuclei. As to conditions: IFN 50 U/ml over 48 hr; 48 hr after IFN treatment. On the procedure:
To gain some insight into which genes to focus, a cell cycle analysis was undertaken using propidium iodide staining of nuclei. […] Analysis was performed by flow cytometry using Modfit software (Verity software house, Topsham, ME).

Another assay concerns RASSF1A. Put plainly: RT-PCR for RASSF1A. The conditions noted are these: IFN 50 U/ml over 48 hr, DNMT1 AS pretreated ACHN cells. On the procedure: To assess reactivation, RT-PCR was performed with primers that amplified RASSF1 variants regulated by a promoter that has been described as hypermethylated in cancer. Primers were [NT] (sense) (SEQ ID NO:45) and [NT] (antisense) (SEQ ID NO:46). Settings used were 95° C.-4 min, (95° C.-1 min, 52° C.-30 sec, 72° C.-30 sec for 30 to 35 cycles), 72° C.-4 min. GAPDH was amplified with the settings 95° C.-4 min, (95° C.-45 sec, 55° C.-30 sec, 72° C.-50 sec for 15 to 25 cycles), 72° C.-4 min. GAPDH primers were [NT] (sense) (SEQ ID NO:47) and [NT] (antisense) (SEQ ID NO:48). For sequencing of full length RASSF1 cDNA RT-PCR with primers (5' to 3') [NT] (sense) (SEQ ID NO:49) and [NT] (antisense) (SEQ ID NO:50) was performed using proofreading platinum Pfx polymerase (Invitrogen, Carlsbad, Calif.) and the following settings: Denaturation at 95° C. for 4 min followed by 30 cycles of denaturation at 95° C. for 45 sec, annealing at 58° C. for 30 sec, and extension at 68° C. for 3 min followed by final extension at 68° C. for 8 min. Products were cloned into Zero Blunt cloning vector for sequencing and then into pcDNA3.1 for overexpression.

For a further assay, the system named is RASSF1A protein. Put plainly: immunoblotting for RASSF1A. The conditions noted are these: IFN 50 U/ml over 48 hr. A general note: A western blot detects proteins with antibodies after separation by electrophoresis.
Assay [2] has as its system ACHN cells. Put plainly: real-time RT-PCR for stat1, stat2 genes. The conditions noted are these: mismatched control treated cells, 50 U/ml IFN-β over 16 hr.
[3] abbreviates: mismatch oligonucleotide pretreated ACHN cells.

On to IFN α: interferon alpha (IFN alpha 2b), for which the cell cycle distribution entry in the assay with ACHN cells [1] was “accumulation of cells in S phase and G2/M”. The “transcription of RASSF1A, semi-quantitative RT-PCR” value in the assay on RASSF1A is “not affected”. The RASSF1A protein result in the assay with RASSF1A protein (setting [3]) is “not”.

B1: IFN β: interferon beta (IFN β 1a) (protein, UniProt P01574 22-187, looked up)
Interferon beta: MSYNLLGFLQRSSNFQCQKLLWQLNGRLEYCLKDRMNFDIPEEIKQLQQFQKEDAALTIYEMLQNIFAIFRQDSSSTGWNETIVENLLANVYHQINHLKTVLEEKLEKEDFTRGKLMSSLHLKRYYGRILHYLKAKEYSHCAWTIVRVEILRNFYFINRLTGYLRN
In the assay with ACHN cells [2], B1 showed a stat1 expression increase of 2.24 fold and a stat2 expression increase of 6.94 fold. Also, the cell cycle distribution entry in the assay with ACHN cells [1] was “accumulation of cells in S phase and G2/M”. For the same molecule, the “transcription of RASSF1A, semi-quantitative RT-PCR” value in the assay on RASSF1A is recorded as “not affected”. The RASSF1A protein result with RASSF1A protein (DNMT1 AS pretreated ACHN cells) is given as “increased RASSF1A protein”. Moreover, in the assay with RASSF1A protein (setting [3]), the RASSF1A protein result is “not”.
